SMILES strings stand for the structures.

Sequences of proteins named here, by UniProt entry; tags and fusion partners are left off.
UniProt P32745, whole entry: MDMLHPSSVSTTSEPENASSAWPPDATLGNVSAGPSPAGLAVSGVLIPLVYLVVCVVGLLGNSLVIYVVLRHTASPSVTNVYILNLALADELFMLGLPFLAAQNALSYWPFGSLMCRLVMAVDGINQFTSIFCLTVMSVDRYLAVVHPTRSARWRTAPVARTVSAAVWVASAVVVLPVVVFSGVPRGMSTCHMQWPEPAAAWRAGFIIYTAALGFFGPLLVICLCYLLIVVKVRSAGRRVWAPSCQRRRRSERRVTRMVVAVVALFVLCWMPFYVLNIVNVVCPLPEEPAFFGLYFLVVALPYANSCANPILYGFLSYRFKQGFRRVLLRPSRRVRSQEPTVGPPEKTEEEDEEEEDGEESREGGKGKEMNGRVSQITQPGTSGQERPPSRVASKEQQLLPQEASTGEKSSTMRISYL
UniProt Q12809, whole entry: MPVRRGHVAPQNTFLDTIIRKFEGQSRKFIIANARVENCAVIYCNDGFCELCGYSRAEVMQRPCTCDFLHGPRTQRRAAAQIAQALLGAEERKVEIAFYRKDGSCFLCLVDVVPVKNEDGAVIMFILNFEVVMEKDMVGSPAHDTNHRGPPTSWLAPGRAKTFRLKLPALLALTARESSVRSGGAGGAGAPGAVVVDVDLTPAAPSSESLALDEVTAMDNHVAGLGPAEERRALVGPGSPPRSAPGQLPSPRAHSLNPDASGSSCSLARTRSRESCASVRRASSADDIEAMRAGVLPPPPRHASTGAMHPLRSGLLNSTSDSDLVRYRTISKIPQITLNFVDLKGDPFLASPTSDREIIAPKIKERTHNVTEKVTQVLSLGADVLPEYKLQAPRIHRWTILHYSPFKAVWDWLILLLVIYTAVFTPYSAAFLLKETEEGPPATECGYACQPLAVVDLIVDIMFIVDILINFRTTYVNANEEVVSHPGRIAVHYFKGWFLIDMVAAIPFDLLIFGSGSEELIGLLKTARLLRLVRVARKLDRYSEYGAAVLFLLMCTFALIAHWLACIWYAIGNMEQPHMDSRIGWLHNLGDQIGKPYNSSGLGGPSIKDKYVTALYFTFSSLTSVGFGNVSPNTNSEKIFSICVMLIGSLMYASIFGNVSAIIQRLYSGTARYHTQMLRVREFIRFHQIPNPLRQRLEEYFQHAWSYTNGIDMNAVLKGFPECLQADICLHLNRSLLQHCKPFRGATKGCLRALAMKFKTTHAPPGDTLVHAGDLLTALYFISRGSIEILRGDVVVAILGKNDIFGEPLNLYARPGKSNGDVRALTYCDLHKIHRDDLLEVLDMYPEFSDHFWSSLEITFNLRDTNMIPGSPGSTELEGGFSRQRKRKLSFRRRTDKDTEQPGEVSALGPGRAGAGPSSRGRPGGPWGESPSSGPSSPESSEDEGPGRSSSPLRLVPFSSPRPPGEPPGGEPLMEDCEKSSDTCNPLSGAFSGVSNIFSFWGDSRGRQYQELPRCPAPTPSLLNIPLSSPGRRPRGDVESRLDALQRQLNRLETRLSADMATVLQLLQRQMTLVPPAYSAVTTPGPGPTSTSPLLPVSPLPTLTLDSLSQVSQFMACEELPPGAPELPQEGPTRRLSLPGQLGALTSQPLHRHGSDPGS

Our source for the Ki, IC50 and EC50 values is patent US8754099B2, “Oxadiazole beta carboline derivatives as antidiabetic compounds” (Merck Sharp & Dohme Corp, priority 2010, dated 2014).

Data set [1] has as its target T1, human SSTR3 (Homo sapiens (Human), UniProt P32745). As to the kind of experiment: SSTR binding filtration assay (SSTR3). The settings on record: read-out: Human SSTR3 Filtration Assay Ki; (3-125I-Tyr11)-SRIF-14 radioligand, CHO-K1 membranes; more active isomer. The procedure: The receptor-ligand binding assays of all 5 subtype of SSTRs were performed with membranes isolated from Chinese hamster ovary (CHO)-K1 cells stably expressing the cloned human somatostatin receptors in 96-well format as previous reported. (Yang et al. PNAS 95:10836-10841, 1998, Birzin et al. Anal. Biochem. 307:159-166, 2002.) The stable cell lines for SSTR1-SSTR5 were developed by stably transfecting with DNA for all five SSTRs using Lipofectamine. Neomycin-resistant clones were selected and maintained in medium containing 400 μg/mL G418 (Rohrer et al. Science 282:737-740, 1998).
Binding assays were performed using (3-^125I-Tyr11)-SRIF-14 as the radioligand (used at 0.1 nM) and The Packard Unifilter assay plate. The assay buffer consisted of 50 mM TrisHCl (pH 7.8) with 1 mM EGTA, 5 mM MgCl2, leupeptin (10 μg/mL), pepstatin (10 μg/mL), bacitracin (200 μg/mL), and aprotinin (0.5 μg/mL). CHO-K1 cell membranes, radiolabeled somatostatin, and unlabeled test compounds were resuspended or diluted in this assay buffer. Unlabeled test compounds were examined over a range of concentrations from 0.01 nM to 10,000 nM. The Ki values for compounds were determined as described by Cheng and Prusoff Biochem Pharmacol. 22:3099-3108 (1973).

Data set [2] deals with T1, human SSTR3. Description: SSTR3 binding Scintillation Proximity Assay (SPA). The settings on record: read-out: Human SSTR3 SPA Assay IC50; 125I-SS14 radioligand, CHO-K1 membranes; more active isomer. The procedure: The receptor-ligand binding Scintillation Proximity Assay (SPA) (N. D. Cook. Drug Discovery Today 1 (1996), pp. 287-294) for SSTR3 was performed with membranes isolated from Chinese hamster ovary (CHO)-K1 cells stably expressing the cloned human somatostatin receptors. Binding assays were performed in 384 well format using ^125I-SS14 as the radioligand for SSTR3. The assay buffer consisted of 50 mM TrisHCl (pH 7.8) with 1 mM EGTA, 5 mM MgCl2, leupeptin (10 μg/mL), pepstatin (10 μg/mL), bacitracin (200 μg/mL), and aprotinin (0.5 μg/mL). CHO-K1 cell membranes were prebound to SPA beads and incubated with unlabelled test compounds and radiolabeled somatostatin in assay buffer. After 5 hours at room temperature, cpm/well was determined. Test compounds were examined in 10 point titrations over a range of concentrations from 0.00001 nM to 1200 nM. Percent inhibition was determined for each data point using binding in the presence of DMSO as the maximum achievable value. The results were plotted using 4 parameter fit and the inflection point reflecting 50% of the maximum inhibition was reported as the IC50.
For orientation: In a scintillation proximity assay essentially only radioactivity close to the scintillant gives light.

Data set [3] deals with T1, human SSTR3. As to the kind of experiment: SSTR3 functional antagonist assay (cAMP, FSK + SS-14, CHO cells). The settings on record: read-out: Human SSTR3 Antagonist EC50; 3.5 μM FSK + 100 nM SS-14; more active isomer. Here is the method:
The effects of compounds that bind to human and murine SSTR3 with various affinities on the functional activity of the receptor were assessed by measuring cAMP production in the presence of Forskolin (FSK) along or FSK plus SS-14 in SSTR3 expressing CHO cells. FSK acts to induce cAMP production in these cells by activating adenylate cyclases, whereas SS-14 suppresses cAMP production in the SSTR3 stable cells by binding to SSTR3 and the subsequent inhibition of adenylate cyclases via an alpha subunit of GTP-binding protein (Gαi).
To measure the antagonism activity of the compounds, we pre-incubated the human or mouse SSTR3 stable CHO cells with the compounds for 15 rain, followed by a one-hour incubation of the cells with a mixture of 3.5 μM FSK+100 nM SS-14 (in the continuous presence of the compounds). The amount of cAMP produced during the incubation was also quantified with the Lance cAMP assay. The antagonism activity of each compound was reflected both by % Inhibition (its maximum ability to block the action of SS-14) and an EC50 value which is the concentration of the test compound required to suppress the effect of 100 nM SS-14 by 50%. The % Inhibition of each compound was calculated using the following formula: % Inhibition=[1−(unknown cAMP/FSK+SS-14 cAMP)]×100

Data set [4] has as its target hERG potassium ion channel (Homo sapiens (Human), UniProt Q12809).

Usually IC50 stands for the concentration at which inhibition is half-maximal. In general, EC50 refers to the midpoint of the concentration-response curve. For the molecule `CCOC[C@]1(c2nnc(C)o2)N[C@@H](c2nc(-c3ccc(F)c(C)n3)c[nH]2)Cc2c1[nH]c1ccccc21`, at human SSTR3 [1], the Ki amounted to 6.4 nM. For the same molecule, the IC50 at human SSTR3 [2] amounted to 43.8 nM; in data set [4] it was 18100 nM. The EC50 at human SSTR3 [3] is 45.8 nM.
Taken in the same sequence, the figures for `CCOC[C@@]1(c2nnc(C)o2)N[C@@H](c2nc(-c3ccc(F)c(C)n3)c[nH]2)Cc2c1[nH]c1ccccc21` were 0.7 nM, 2.6 nM, 20100 nM and 2.2 nM.
